The target in one data set is T1, human Tau 40 WT (Homo sapiens, UniProt P10636).
T1 construct: His tag (inferred from Ni-NTA purification and pQE80 vector); made in house; host or cells: E. coli BL21-DE3
Kind of data set: ThT assay, inhibition of human Tau 40 WT autoaggregation by Tau inhibitor. Type of data set: biochemical. The following applies: 15 μM Tau protein and 30 μM inhibitor (1:2). As for the experimental part: (§1) All inhibitor peptides were purchased from Biomatik. Dissolution was performed at a working concentration of 1.2 mM in deionized water, with a minimum purity of 95% or higher. Human Tau 40 WT was expressed by the pQE80 vector in BL21-DE3 E. coli cells grown to OD600=0.8 in LB medium. Cells were induced with 1 mM IPTG for 3 hours at 37° C. and further incubated for 4 hours, and then cultured E. coli cells were harvested by centrifugation at 5,000 rpm for 20 minutes. The obtained E. coli was resuspended in a dissolution buffer (50 mM NaH2PO4, NaCl 250 mM, 10 mM imidazole pH 8.0) and then dissolved by sonication. Cell lysates were purified by centrifugation at 15,000 rpm for 15 minutes, and 1 ml of 50% Ni-NTA slurry was added to 4 ml of the supernatant and shaken at 4° C. for 60 minutes (200 rpm on a rotator) to mix gently. […]
(§2) Autoaggregation of human Tau 40 WT or Tau inhibitor was tested using 15 μM of human Tau 40 WT protein or 30 μM of inhibitor (SEQ ID NOs: 22 or 32), 8 μM heparin, and 50 μM ThT. ThT fluorescence was measured using a Biotek Synergy H1 reader at an excitation wavelength of 440 nm and emission wavelength of 485 nm. The reactions were incubated at 37° C., and measured every 15 minutes for 70 hours with orbital vibration of 425 cpm continuously. […]

Data set [1] is described as follows: ThT assay of autoaggregation of human Tau 40 WT or Tau inhibitor. Type of data set: physicochemical. The settings on record: 30 μM inhibitor, 8 μM heparin, 50 μM ThT, 37° C., 70 hours. As to the method: as §1, §2

Experimental findings from patent US20250269058A1, “GENE THERAPY FOR TREATING NEURODEGENERATIVE DISEASES” (ABRAIN, priority 2021, published 2025) are described below.

B1: MQTAPVPMPDLKNVKSKIGSTENLKHQPGGGDVQPINKKLKLSNVQSKCGSKDNIKHVPGGGSVQPVYDPVDLSKVTSKCGSLGNIHHKPGGGQVEVKSEKLDFKDRVQSKIGSLDNITHVPGGGNKKIE (protein)
chain: MQTAPVPMPDLKNVKSKIGSTENLKHQPGGGDVQPINKKLKLSNVQSKCGSKDNIKHVPGGGSVQPVYDPVDLSKVTSKCGSLGNIHHKPGGGQVEVKSEKLDFKDRVQSKIGSLDNITHVPGGGNKKIE
modifications: Tau inhibitor
For B1, the “inhibition of Tau WT aggregation (competition assay)” value in the data set with human Tau 40 WT is reported as “aggregation of Tau WT was completely attenuated”. Moreover, the “autoaggregation in ThT assay” value in data set [1] is “did not show autoaggregation during the reaction”.
